Test results taken from publication PMC9569420 (Communications Biology, 2022).

Columns and labels:
Assay type in all cases: biochemical
Details in all cases: 10µM
[1] = target: T1, MRCKb/CDC42BPB (Homo sapiens, UniProt Q9Y5S2); assay: HotSpot kinase assay
T1 construct: purchased Reaction Biology Corporation

[2] = target: T2, GSK3a (Homo sapiens, UniProt P49840); assay: HotSpot kinase assay
T2 construct: purchased Reaction Biology Corporation

[3] = target: T3, CHK2 (Homo sapiens, UniProt O96017); assay: HotSpot kinase assay
T3 construct: purchased Reaction Biology Corporation

[4] = target: T4, PKCtheta (Homo sapiens, UniProt Q04759); assay: HotSpot kinase assay
T4 construct: purchased Reaction Biology Corporation

[5] = target: T5, CAMK4 (Homo sapiens, UniProt Q16566); assay: HotSpot kinase assay
T5 construct: purchased Reaction Biology Corporation

[6] = target: T6, CDK7/cyclin H (Homo sapiens, UniProt P50613); assay: HotSpot kinase assay
T6 construct: purchased Reaction Biology Corporation

[7] = target: T7, EIF2AK3 (Homo sapiens, UniProt Q9NZJ5); assay: HotSpot kinase assay
T7 construct: purchased Reaction Biology Corporation

[8] = target: T8, CDK18/cyclin Y (PCTK3) (Homo sapiens, UniProt Q07002); assay: HotSpot kinase assay
T8 construct: purchased Reaction Biology Corporation

[9] = target: T9, LATS2 (Homo sapiens, UniProt Q9NRM7); assay: HotSpot kinase assay
T9 construct: purchased Reaction Biology Corporation

[10] = target: T10, RON/MST1R (Homo sapiens, UniProt Q04912); assay: HotSpot kinase assay
T10 construct: purchased Reaction Biology Corporation

[11] = target: T11, CDK4/cyclin D3 (Homo sapiens, UniProt P11802); assay: HotSpot kinase assay
T11 construct: purchased Reaction Biology Corporation

[12] = target: T12, c-MER (Homo sapiens, UniProt Q12866); assay: HotSpot kinase assay
T12 construct: purchased Reaction Biology Corporation

[13] = target: T13, SBK1 (Homo sapiens, UniProt Q52WX2); assay: HotSpot kinase assay
T13 construct: purchased Reaction Biology Corporation

[14] = target: T14, STK22D/TSSK1 (Homo sapiens, UniProt Q9BXA7); assay: HotSpot kinase assay
T14 construct: purchased Reaction Biology Corporation

[15] = target: T15, FGFR2 (Homo sapiens, UniProt P21802); assay: HotSpot kinase assay
T15 construct: purchased Reaction Biology Corporation

[16] = target: T16, PKAcg (Homo sapiens, UniProt P22612); assay: HotSpot kinase assay
T16 construct: purchased Reaction Biology Corporation

[17] = target: T17, NEK7 (Homo sapiens, UniProt Q8TDX7); assay: HotSpot kinase assay
T17 construct: purchased Reaction Biology Corporation

[18] = target: T18, P38d/MAPK13 (Homo sapiens, UniProt O15264); assay: HotSpot kinase assay
T18 construct: purchased Reaction Biology Corporation

[19] = target: T19, CDK5/p35 (Homo sapiens, UniProt Q00535); assay: HotSpot kinase assay
T19 construct: purchased Reaction Biology Corporation

[20] = target: T20, PDK1/PDHK1 (Homo sapiens, UniProt Q15118); assay: HotSpot kinase assay
T20 construct: purchased Reaction Biology Corporation

[21] = target: T21, NEK3 (Homo sapiens, UniProt P51956); assay: HotSpot kinase assay
T21 construct: purchased Reaction Biology Corporation

[22] = target: T22, ARAF (Homo sapiens, UniProt P10398); assay: HotSpot kinase assay
T22 construct: purchased Reaction Biology Corporation

[23] = target: T23, CDK2/CYCLIN E (Homo sapiens, UniProt P24941); assay: HotSpot kinase assay
T23 construct: purchased Reaction Biology Corporation

[24] = target: T24, AKT2 (Homo sapiens, UniProt P31751)
T24 construct: purchased Reaction Biology Corporation

[25] = target: T25, CK2a2 (Homo sapiens, UniProt P19784); assay: HotSpot kinase assay
T25 construct: purchased Reaction Biology Corporation

[26] = target: T26, STK16 (Homo sapiens, UniProt O75716); assay: HotSpot kinase assay
T26 construct: purchased Reaction Biology Corporation

[27] = target: T27, PKA (Homo sapiens, UniProt P17612); assay: HotSpot kinase assay
T27 construct: purchased Reaction Biology Corporation

[28] = target: T28, MLK1/MAP3K9 (Homo sapiens, UniProt P80192); assay: HotSpot kinase assay
T28 construct: purchased Reaction Biology Corporation

[29] = target: T29, DYRK1/DYRK1A (Homo sapiens, UniProt Q13627); assay: HotSpot kinase assay
T29 construct: purchased Reaction Biology Corporation

[30] = target: T30, LATS1 (Homo sapiens, UniProt O95835); assay: HotSpot kinase assay
T30 construct: purchased Reaction Biology Corporation

[31] = target: T31, CK1a1 (Homo sapiens, UniProt P48729); assay: HotSpot kinase assay
T31 construct: purchased Reaction Biology Corporation

[32] = target: T32, WNK1 (Homo sapiens, UniProt Q9H4A3); assay: HotSpot kinase assay
T32 construct: purchased Reaction Biology Corporation

[33] = target: T33, EIF2AK2 (Homo sapiens, UniProt P19525); assay: HotSpot kinase assay
T33 construct: purchased Reaction Biology Corporation

[34] = target: T34, MST1/STK4 (Homo sapiens, UniProt Q13043); assay: HotSpot kinase assay
T34 construct: purchased Reaction Biology Corporation

[35] = target: T35, IKKe/IKBKE (Homo sapiens, UniProt Q14164); assay: HotSpot kinase assay
T35 construct: purchased Reaction Biology Corporation

[36] = target: T36, FGFR3 (Homo sapiens, UniProt P22607); assay: HotSpot kinase assay
T36 construct: purchased Reaction Biology Corporation

[37] = target: T37, MARK4 (Homo sapiens, UniProt Q96L34); assay: HotSpot kinase assay
T37 construct: purchased Reaction Biology Corporation

[38] = target: T38, AMPK(A2/B2/G2) (Homo sapiens, UniProt P54646); assay: HotSpot kinase assay
T38 construct: purchased Reaction Biology Corporation

[39] = target: T39, MST2/STK3 (Homo sapiens, UniProt Q13188); assay: HotSpot kinase assay
T39 construct: purchased Reaction Biology Corporation

[40] = target: T40, PKN2/PRK2 (Homo sapiens, UniProt Q16513); assay: HotSpot kinase assay
T40 construct: purchased Reaction Biology Corporation

[41] = target: T41, MUSK (Homo sapiens, UniProt O15146); assay: HotSpot kinase assay
T41 construct: purchased Reaction Biology Corporation

[42] = target: T42, CDK5/P25 (Homo sapiens, UniProt Q00535); assay: HotSpot kinase assay
T42 construct: purchased Reaction Biology Corporation

[43] = target: T43, PAK4 (Homo sapiens, UniProt O96013); assay: HotSpot kinase assay
T43 construct: purchased Reaction Biology Corporation

CO[C@@H]1[C@H](N(C)C(=O)CCC(=O)NCc2cn(CCCS(=O)(=O)O)nn2)C[C@H]2O[C@]1(C)n1c3ccccc3c3c4c(c5c6ccccc6n2c5c31)C(=O)NC4 [CIMSS]
% Enzyme Activity (relative to DMSO controls) [1]: 73.82%
% Enzyme Activity (relative to DMSO controls) [2]: 2.26%
% Enzyme Activity (relative to DMSO controls) [3]: 25.13%
% Enzyme Activity (relative to DMSO controls) [4]: 6.89%
% Enzyme Activity (relative to DMSO controls) [5]: 62.68%
% Enzyme Activity (relative to DMSO controls) [6]: 65.37%
% Enzyme Activity (relative to DMSO controls) [7]: 60.18%
% Enzyme Activity (relative to DMSO controls) [8]: 36.57%
% Enzyme Activity (relative to DMSO controls) [9]: 6.32%
% Enzyme Activity (relative to DMSO controls) [10]: 25.03%
% Enzyme Activity (relative to DMSO controls) [11]: 84.60%
% Enzyme Activity (relative to DMSO controls) [12]: 2.15%
% Enzyme Activity (relative to DMSO controls) [13]: 76.94%
% Enzyme Activity (relative to DMSO controls) [14]: 2.56%
% Enzyme Activity (relative to DMSO controls) [15]: 2.54%
% Enzyme Activity (relative to DMSO controls) [16]: 2.04%
% Enzyme Activity (relative to DMSO controls) [17]: 82.08%
% Enzyme Activity (relative to DMSO controls) [18]: 69.92%
% Enzyme Activity (relative to DMSO controls) [19]: 8.70%
% Enzyme Activity (relative to DMSO controls) [20]: 96.82%
% Enzyme Activity (relative to DMSO controls) [21]: 85.95%
% Enzyme Activity (relative to DMSO controls) [22]: 152.51%
% Enzyme Activity (relative to DMSO controls) [23]: 5.60%
% Enzyme Activity (relative to DMSO controls) [24]: 29.76%
% Enzyme Activity (relative to DMSO controls) [25]: 43.00%
% Enzyme Activity (relative to DMSO controls) [26]: 9.79%
% Enzyme Activity (relative to DMSO controls) [27]: 6.28%
% Enzyme Activity (relative to DMSO controls) [28]: 4.01%
% Enzyme Activity (relative to DMSO controls) [29]: 1.92%
% Enzyme Activity (relative to DMSO controls) [30]: 9.79%
% Enzyme Activity (relative to DMSO controls) [31]: 97.55%
% Enzyme Activity (relative to DMSO controls) [32]: 107.75%
% Enzyme Activity (relative to DMSO controls) [33]: 9.34%
% Enzyme Activity (relative to DMSO controls) [34]: 3.39%
% Enzyme Activity (relative to DMSO controls) [35]: 1.28%
% Enzyme Activity (relative to DMSO controls) [36]: 4.46%
% Enzyme Activity (relative to DMSO controls) [37]: 0.72%
% Enzyme Activity (relative to DMSO controls) [38]: 0.63%
% Enzyme Activity (relative to DMSO controls) [39]: 3.40%
% Enzyme Activity (relative to DMSO controls) [40]: 6.60%
% Enzyme Activity (relative to DMSO controls) [41]: 2.02%
% Enzyme Activity (relative to DMSO controls) [42]: 6.97%
% Enzyme Activity (relative to DMSO controls) [43]: 7.24%
